We go through five compounds from ChEMBL document CHEMBL1255389, “Exploiting the drug-activating properties of a novel trypanosomal nitroreductase” (Antimicrob Agents Chemother, 2010).

The test system of this experiment is Trypanosoma brucei.

In general, Km refers to the substrate concentration at which the rate is half of its maximum.

As for `NP(=O)(OCc1ccc([N+](=O)[O-])cc1F)N(CCCl)CCCl` (stereo not given), the Km was 6.9 µM. Then `NP(=O)(OCc1ccc([N+](=O)[O-])cc1C(F)(F)F)N(CCCl)CCCl` (stereo not given), with 2.4 µM. Then `NP(=O)(OCc1ccc([N+](=O)[O-])cc1Cl)N(CCCl)CCCl` (stereo not given), with 8.4 µM; and `NP(=O)(OCc1c(F)cc([N+](=O)[O-])cc1F)N(CCCl)CCCl` (stereo not given), with 2.8 µM. Then `NP(=O)(OCc1ccc([N+](=O)[O-])cc1)N(CCCl)CCCl` (stereo not given), with 80.3 µM.
